Results reported in ChEMBL document CHEMBL1157565, “Discovery of 1-[3-(4-bromo-2-methyl-2h-pyrazol-3-yl)-4-methoxyphenyl]-3-(2,4-difluorophenyl)urea (nelotanserin) and related 5-hydroxytryptamine2A inverse agonists for the treatment of insomnia” (J Med Chem, 2010).

Protein sequences, listed by entry. Tags and fused reporters are not part of them.
UniProt P14842, whole entry: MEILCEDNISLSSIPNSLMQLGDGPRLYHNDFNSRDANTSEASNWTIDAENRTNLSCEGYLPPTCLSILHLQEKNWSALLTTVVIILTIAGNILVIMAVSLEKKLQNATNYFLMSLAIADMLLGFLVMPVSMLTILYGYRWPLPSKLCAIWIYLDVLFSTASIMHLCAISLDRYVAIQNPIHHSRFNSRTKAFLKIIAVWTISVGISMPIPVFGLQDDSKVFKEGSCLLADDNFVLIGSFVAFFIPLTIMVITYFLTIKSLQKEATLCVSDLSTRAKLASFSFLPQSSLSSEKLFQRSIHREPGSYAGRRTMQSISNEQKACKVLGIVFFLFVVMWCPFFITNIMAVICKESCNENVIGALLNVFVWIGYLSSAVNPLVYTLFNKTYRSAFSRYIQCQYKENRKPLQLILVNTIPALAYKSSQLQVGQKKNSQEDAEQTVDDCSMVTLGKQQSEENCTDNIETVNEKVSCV

Target: 5-hydroxytryptamine receptor 2A (Rattus norvegicus, UniProt P14842)
Assay: Displacement of [125I]DOI from rat recombinant 5HT2A receptor by scintillation counting

Ki [nM] | Compound
3.98 | COc1ccc(NC(=O)Nc2ccc(Cl)cc2)cc1-c1c(Br)cnn1C
3.98 | COc1ccc(NC(=O)Nc2ccc(F)cc2)cc1-c1c(Br)cnn1C
